According to PubChem BioAssay AID504408 (Broad Institute, 2011):
Only a part is listed here, and it is no random draw. Activity calls are given as the source filed them.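 Rule for the calls: active = mean replicate activation of at least 50% with a set share of replicates each reaching 50%; inconclusive = only one of those two conditions met; inactive = mean below 50% and too few replicates reaching it.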

test: HSF-1 activators, primary screen, NIH3T3-HGL cells, MG132 stress, luminescence, single point (AID 504408); conditions: NIH3T3-HGL HSF-1 luciferase reporter, MG132, 8 h; at 9 µM; hits give high values; 100% = twice DMSO control signal;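 note: 0% = median of the neutral control wells and 100% = twice that signal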

Row | Compound | activation
1 | O=C(/C=C/c1ccccc1)OC1CN2CCC1CC2 (stereo not given) | inactive: -11.5%
2 | CN(C)C1(CNC(=O)c2ccc(S(C)(=O)=O)cc2)CCCCC1 | inactive: -1.56%
3 | CC1CCC(C(C)C)C(OP(=O)(Nc2ccccn2)c2ccccc2)C1 (stereo not given) | inactive: 6.33%
4 | Cc1ccc(C(=O)OC2CN3CCC2CC3)cc1 (stereo not given) | inactive: -2.85%
5 | Cc1nn(-c2ccccc2)c2c1P(=O)(N1CCOCC1)N(C)C(c1ccccc1)=N2 (stereo not given) | inactive: 1.32%
6 | Cc1ccc(OCC(=O)OC2CN3CCC2CC3)cc1 (stereo not given) | inactive: -1.56%
7 | O=[As](O)(c1cccs1)c1cccs1 | inactive: 35%
8 | Nc1cccc([As](=O)(O)c2ccccc2)c1 | inactive: 4.31%
9 | O=P1(Nc2ncccn2)COc2ccccc2OC1 | inactive: -3.84%
10 | CC(C)(C)C(=O)NC(Sc1ncccn1)C(Cl)(Cl)Cl (stereo not given) | inactive: -13.5%
11 | Clc1n[nH]nc1-c1nn[nH][15n]1 | inactive: 1.48%
12 | CN(CCCl)Cc1cc(Cl)c(NC2=NCCN2)c(Cl)c1 | inactive: -16.6%
13 | CCOP(=O)(Nc1ccc(C)cn1)OCC | inactive: 5.76%
14 | CCOP(=O)(NC(=NC(C)c1ccccc1)NC(C)c1ccccc1)OCC (stereo not given) | inactive: 19.5%
15 | O=P1(Nc2ccccn2)COc2ccccc2OC1 | inactive: -5.05%
16 | CCC1=CC2Cc3nc4ccc(Cl)cc4c(N)c3C(C1)C2 (stereo not given) | inactive: 5.05%
17 | CC1(CBr)Cn2c(nc3ccccc3c2=O)S1 (stereo not given) | inactive: 1.53%
18 | O=[As](O)(c1ccccc1Br)c1ccccc1Br | inactive: 2.86%
19 | CC(C)/C=N\N=C(\N)N[N+](=O)[O-] | inactive: -1.34%
20 | CN(C(=O)Cc1ccc(Cl)c(Cl)c1)[C@@H]1CCCC[C@H]1N1CCCC1 | inactive: -6.18%
21 | COc1ccccc1CNC(=O)COC(=O)C(O)(c1ccccc1)c1ccccc1 | inactive: -10.8%
22 | O=[As](O)(c1cccc(O)c1)c1cccc(O)c1 | inactive: -8.88%

Row | Compound | activation
23 | Cc1cccc(OCC(=O)OC2CN3CCC2CC3)c1 (stereo not given) | inactive: 0.337%
24 | CS(=O)(=O)c1ccc(Cl)c(NC(=O)COC(=O)C(O)(c2ccccc2)c2ccccc2)c1 | inactive: -16%
25 | COc1cc(C(=O)NCC2(N3CCOCC3)CCCCC2)cc(Cl)c1OC(C)C | inactive: -5.88%
26 | O=[As](O)(O)c1cccnc1 | inactive: -8.25%
27 | O=C(OC1CN2CCC1CC2)c1ccc(Cl)cc1 (stereo not given) | inactive: 12.8%
28 | CCOP(=O)(Nc1cccc2ccccc12)OCC | inactive: -16.1%
29 | COc1cc(C2NCCC3(OCCO3)C2(C)C)cc(OC)c1OC (stereo not given) | inactive: -4.93%
30 | CCCOP(=S)(Nc1nc(N)cc(=O)[nH]1)OCCC | inactive: -7.34%
31 | Cc1ccc(NCCc2c([N+](=O)[O-])cc([N+](=O)[O-])cc2[N+](=O)[O-])cc1 | inactive: 20.2%
32 | Nc1cccc2c([As](=O)(O)O)cccc12 | inactive: -9.1%
33 | Nc1ccccc1[As](=O)(O)c1ccccc1 | inactive: 8.64%
34 | O=C(O)COc1ccc([As](=O)(O)O)cc1[N+](=O)[O-] | inactive: 3.11%
35 | CS(=O)(=O)c1cc([N+](=O)[O-])c2no[n+]([O-])c2c1 | inactive: -11.6%
36 | O=P(Nc1nccs1)(c1ccccc1)c1nc2ccccc2s1 (stereo not given) | inactive: -2.65%
37 | O=P(Nc1nccs1)(Oc1ccccc1)Oc1ccccc1 | inactive: -4.43%
38 | CCOP1(=S)c2c(C)nn(CCC#N)c2N=C(c2ccccc2F)N1C (stereo not given) | inactive: 32.8%
39 | CN(C(=O)Cc1ccc(Cl)c(Cl)c1)[C@H]1CC[C@@]2(CCCO2)C[C@@H]1N1CCCC1 | inactive: -2.05%
40 | CN(C)C(=O)c1cc([N+](=O)[O-])cc2c1-c1c(cc([N+](=O)[O-])cc1[N+](=O)[O-])C2=O | inactive: -2.02%
41 | O=[N+]([O-])c1ccc2c(c1)nnn2O | inactive: 29.3%
42 | CCOP1(=S)c2c(C)nn(CCC#N)c2N=C(c2ccc(F)cc2)N1C (stereo not given) | inactive: 1.33%
43 | CN(C(=O)Cc1ccccc1)[C@@H]1CC[C@]2(CCCO2)C[C@H]1N1CCCC1 | inactive: 13.2%
44 | N#CCCN(C(=O)COC(=O)C(O)(c1ccccc1)c1ccccc1)c1ccc(F)cc1 | inactive: 4.21%

Row | Compound | activation
45 | NC(=O)Nc1ccc([As](=O)(O)O)cc1 | inactive: -5.01%
46 | Cc1ccc2nc3c(c(C)c2c1)CC(C(Cl)Cl)S3 (stereo not given) | inactive: 42%
47 | Cc1ccc(OP(=O)(Nc2ccc([N+](=O)[O-])cn2)Oc2ccc(C)cc2)cc1 | inactive: 2.88%
48 | C[As](=O)(O)c1cccc(C(=O)O)c1 | inactive: -1.37%
49 | O=[As](O)(c1ccc(O)cc1)c1ccccc1O | inactive: 0.309%
50 | O=[N+]([O-])c1cc([N+](=O)[O-])c(-c2ccn[nH]2)s1 | inactive: 48%
51 | CCN(CC)C(=S)SC(NC=O)C(Cl)(Cl)Cl (stereo not given) | inactive: -22.7%
52 | CC(C)NC(=O)NP(=O)(Oc1ccccc1)Oc1ccccc1 | inactive: 0.905%
53 | CC(C)c1ccc(OP(=O)(Nc2ccccn2)Oc2ccccc2F)cc1 (stereo not given) | inactive: 0.732%
54 | ClCCSc1nnc(-c2cccnc2)o1 | inactive: 8.05%
55 | COc1cc(I)ccc1[As](=O)(O)O | inactive: 3.77%
56 | COc1ccc2nc(NP(=O)(c3ccccc3)c3ccccc3)sc2c1 | inactive: -5.94%
57 | Cc1cc(=O)[nH]c(N[N+](=O)[O-])n1 | inactive: 9.24%
58 | O=C(OC1CN2CCC1CC2)C12CC3CC(CC(C3)C1)C2 (stereo not given) | inactive: -12.5%
59 | Cc1c2c(nc3ccccc13)SC(C(Cl)Cl)C2 (stereo not given) | inactive: 24.7%
60 | COc1ccc(N/C(=N/P(=O)(N2CCOCC2)N2CCOCC2)N2CCOCC2)cc1 | inactive: 5.68%
61 | O=C(Nc1ccncc1[N+](=O)[O-])c1ccc([N+](=O)[O-])cc1[N+](=O)[O-] | inactive: 2.37%
62 | O=C(COc1ccccc1)OC1CN2CCC1CC2 (stereo not given) | inactive: 3.25%
63 | COP1(=S)c2c(C)nn(CCC#N)c2N=C(c2ccc(F)cc2)N1C (stereo not given) | inactive: 8.02%
64 | CCC(C)N(CC(C)C)C(=S)SC(NC(C)=O)C(Cl)(Cl)Cl (stereo not given) | inactive: 34.7%
65 | CCOC(=O)c1ccc(NC(=O)C(C)(CCl)SC)cc1 (stereo not given) | inactive: 4.46%
